In US20230112123A1 one finds EC50 data, which are given here for one substance.

The target of assay [1] is CD47 (UniProt Q08722). Description: FACS binding; U266 cells. The settings on record: Fc fusion.
Assay [2] has as its target CD47 (UniProt Q08722). Description: FACS binding; Raji cells. The settings on record: Fc fusion.

Regarding “IMM01 (SIRPalphaD1 mutant-Fc fusion protein)”, the EC50 with CD47 [1] was determined as 17.5 nM; with CD47 [2], 5.22 nM.
